Screening results deposited in PubChem by National Center for Advancing Translational Sciences (NCATS).
Nrf2 activator = activators of Nrf2 (ARE) signaling; 410,000 tested, 0.31% active; AREc32 ARE-luciferase reporter (MCF7-derived line), luminescence, 24 h; AID 624171; Potency, µM (series often up to 46.1 µM), for the others: at the top dose activation, usual class: activators; note: potency is the fitted concentration of half-maximal effect; % of control where 0% means no effect; nearly all actives have a fitted effect of over 65% in size
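Quantitative high-throughput format: AREc32 reporter cells, 1000 per well, received compound by pin transfer and were incubated 24 hr at 37 deg C, 5% CO2, before Steady-Glo luminescence detection.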
ClpP mod = qHTS Assay for Activators of ClpP; Potency, µM (series often up to 57.5 µM), inactives show at the top dose activity change, negative = active; 340,000 tested, 1.9% active; purified B. subtilis ClpP, FRET peptide cleavage, 20 min; AID 651965, 2013; active = well fitted falling curve with a large enough effect; inconclusive = small, poorly fitted or top-dose-only effect; inactive = no such curve, though single readings can be large or run the other way; note: potency is the fitted concentration of half-maximal effect; the source files actives as falling curves though it sought activators and does not explain the sign; nearly all actives have a fitted effect of over 65% in size
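Buffer: 100 mM Tris/HCl pH8, 100 mM KCl, 0.05% low protease BSA, 2.5% glycerol, 0.01% Tween-20. ClpP 10 microg/mL final; 20 min RT; delta FRET normalized to ADEP and DMSO controls.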
miR-21 reporter = raises the signal of a miR-21 reporter | HeLa miR-21 FLuc reporter, luciferase, 48 h | Potency, µM (doses to about 38.3 µM), for the others: at the highest dose reporter change, positive = more light | 340,000 tested, under 10 active | AID 2288; active = well fitted rising curve with a large enough effect; inconclusive = small, poorly fitted or top-dose-only effect; inactive = no such curve, though single readings can be large or run the other way;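 also: % of control where 0% means no effect; miR-21 action dims this reporter so a rising signal means less miR-21 action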
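Compounds were titrated across several concentrations (up to approximately 40 uM) and incubated 48 hours with HeLa miR-21-FLuc reporter cells (miR-21 target sequence downstream of FLuc, endogenous miR-21). Readout was firefly luciferase luminescence after lytic detection reagent.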
Nrf2 block = inhibitors of Nrf2 signaling; Potency, µM (highest dose often 46 µM), for the others: at the top dose activity change, negative = inhibition, usual class: inhibitors; 360,000 tested, 2.1% active; A549 ARE-Fluc reporter, luciferase luminescence, 18-24 h; note: potency is the fitted concentration of half-maximal effect; % is set by controls: 0 for no effect and ±100 for the full control effect; nearly all actives have a fitted effect of over 60% in size
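In this cell-based qHTS, ARE-driven firefly luciferase in A549 cells reports Nrf2 activity; the luminescent signal after BugLite lysis is the measured value, with a prior CellTiter-Fluor read for cell health.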
A549 tox = A549 cytotoxicity, counter-screen for Nrf2 inhibitors; AID 504648; Potency, µM (top dose mostly 46 µM), for the others: at the highest dose activity change, negative = cytotoxicity, hits mostly inhibitors; 390,000 tested, 0.16% active; A549 ARE-Fluc cells, CellTiter-Fluor viability, 18-24 h; note: potency is the fitted concentration of half-maximal effect; % is set by controls: 0 for no effect and ±100 for the full control effect
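A549 ARE-Fluc cells in 5% FBS OPTI-MEM, 5000 cells/well, rested 2 h then exposed to compounds in concentration-response for 18-24 h at 37 °C. Viability by CellTiter-Fluor fluorescence (Ex 405/Em 525) after 30 min; luciferase luminescence (BugLite, 15 min, RT) read afterwards.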
p53 reactivation = re-activators of mutant p53 | H1299 p53-A138V BP100-luciferase reporter, luminescence, 24 h | Potency, µM (series often up to 92.2 µM), inactives show at the highest dose activity change, positive = activation, actives largely listed as activators | 320,000 tested, 0.063% active | AID 504706; note: potency is the fitted concentration of half-maximal effect; % of control where 0% means no effect; nearly all actives have a fitted effect of over 45% in size
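p53-null H1299 cells stably carrying temperature-sensitive p53-A138V and a BP100-luciferase reporter were pinned with compounds (4-point, 1:5 series) and held 24 hrs at 37 deg C. Luminescence was read 10 min after detection reagent.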
* marks the source's active call; other numbers are inactive results; u = inconclusive; x = no result given; [ ] = dose if it differs, or a comment. An excerpt weighted towards active compounds, which were near 3.7% of everything screened. Unless noted, calls come from the whole dose curve; as a rule, active = well fitted curve in the direction sought with a large enough effect; inconclusive = small, poorly fitted or top-dose-only effect, or another doubt; inactive = no such curve, though single readings can be large; an effect the other way counts as inactive or inconclusive.

SMILES	Nrf2 activator	ClpP mod	miR-21 reporter	Nrf2 block	A549 tox	p53 reactivation
COC(=O)c1c(NC(=O)c2ccccc2)sc(C(N)=O)c1C	1µM*	x	3.2%	u	-5.7%	-2.1%
COc1ccc(-c2nc(CS(=O)CC(=O)NCCCN3CC(C)CC(C)C3)c(C)o2)cc1OC (stereo not given)	-0.4%	28.2µM*	-4.5%	0.2%	-2.0%	0.6%
COc1ccc(-c2nc(CS(=O)CC(=O)NCCc3ccc(C)cc3)c(C)o2)cc1OC (stereo not given)	3.5%	3.9%	-8.3%	-9.9%	-1.1%	-2.1%
COc1ccc(-c2nc(CS(=O)CC(=O)NCCc3ccccc3)c(C)o2)cc1OC (stereo not given)	5.9%	15.8µM*	-20.3%	-9.9%	-7.2%	x
COc1cccc(C(NC(C)=O)c2nc(-c3ccc(F)cc3OC)cs2)c1 (stereo not given)	0.2%	1.9%	x	x	x	x
COc1ccc(CC(=O)Nc2ccc(-c3cn4ccc(C)cc4n3)cc2)cc1	6.1%	15.8µM*	-28.8%	u	u	u
COc1ccc(CC(=O)Nc2ccc(-c3cn4cccc(C)c4n3)cc2)cc1OC	7.4%	u	-1.3%	7.31µM*	2.5%	-11.8%
O=C(O)c1ccc(Nc2ccc([N+](=O)[O-])c3nonc23)cc1	-1.2%[9.22 µM]	x	1.9%	9.2%	u	-18.9%
CCc1nnc(NS(=O)(=O)c2ccc(Nc3ccc([N+](=O)[O-])c4nonc34)cc2)s1	2.2%	x	8.9%	-26.9%	23.1µM*	-0.7%
CCc1nnc(NS(=O)(=O)c2ccc(NC(=O)c3cccc([N+](=O)[O-])c3)cc2)s1	-1.0%	0.2%	-0.7%	1.4%	5.2%	7.4%
CCc1nnc(NS(=O)(=O)c2ccc(NC(=O)c3ccc([N+](=O)[O-])s3)cc2)s1	14.1µM*	0.6%	x	x	x	x
CCc1nnc(NS(=O)(=O)c2ccc(NS(=O)(=O)c3ccccc3[N+](=O)[O-])cc2)s1	0.0%	-0.8%	0.0%	10.7%	0.1%	1.1%
CC(=O)c1ccc(Nc2ccc([N+](=O)[O-])c3nonc23)cc1	11.2µM*	-1.0%	-23.4%	-1.3%	u	x
COc1ccccc1N1CCN(C(=O)CCCNC(=O)Cn2cnc3sc(C)c(C)c3c2=O)CC1	0.1%	0.3%	6.5%	23.1µM*	6.9%	-7.0%
Cc1sc2ncn(CC(=O)NCCCC(=O)Nc3ccc(C(C)C)cc3)c(=O)c2c1C	-0.9%	-1.7%	-2.4%	29.1µM*	u	-2.7%
COc1cccc(NC(=O)CCCNC(=O)Cn2cnc3sc(C)c(C)c3c2=O)c1	1.6%	x	0.5%	2.2%	9.7%	-2.8%
COc1ccc(N2C(=O)c3ccccc3NC2c2cccnc2)cc1 (stereo not given)	0.4%	-2.8%	-26.2%	u	-0.4%	4.3%
O=C1c2ccccc2NC(c2cccnc2)N1c1ccccc1F (stereo not given)	-0.2%	11.2µM*	-10.5%	8.7%	-1.2%	-0.6%
COc1ccc(-c2n[nH]c(=S)o2)c(OC)c1	3.1%	25.1µM*	-15.4%	x	-2.8%	-1.4%
CCOc1ccccc1-c1n[nH]c(=S)o1	2.5%	u	1.2%	x	-1.7%	-0.5%
CC(=O)Nc1nc(C)nc(-c2ccccc2OC(C)=O)n1	0.6%	0.4%	-17.2%	7.8%	0.0%[1.84 µM]	9.6%
CC(=O)Nc1nc(-c2ccccc2)nc(-c2ccccc2OC(C)=O)n1	22.7%	0.1%	14.5%	13µM*	-24.6%	9.7%
Cn1cccc1C(=O)NC(=O)COC(=O)CC12CC3CC(CC(Br)(C3)C1)C2	-0.2%	28.2µM*	-2.0%	x	-1.1%	-3.6%
COc1ccc2c(CN(C)c3ccccc3)cc(=O)oc2c1	0.1%	22.4µM*	-10.2%	3.8%	3.2%	5.4%

4 structures already listed, ordered by length of the SMILES, falling:
SMILES	Nrf2 activator	ClpP mod	miR-21 reporter	Nrf2 block	A549 tox	p53 reactivation
CCc1nnc(NS(=O)(=O)c2ccc(NS(=O)(=O)c3ccccc3[N+](=O)[O-])cc2)s1	0.0%	-0.8%	0.0%	10.7%	0.1%	1.1%
CCc1nnc(NS(=O)(=O)c2ccc(NC(=O)c3ccc([N+](=O)[O-])s3)cc2)s1	14.1µM*	0.6%	x	x	x	x
COc1cccc(NC(=O)CCCNC(=O)Cn2cnc3sc(C)c(C)c3c2=O)c1	1.6%	x	0.5%	2.2%	9.7%	-2.8%
COc1ccc(CC(=O)Nc2ccc(-c3cn4cccc(C)c4n3)cc2)cc1OC	7.4%	u	-1.3%	7.31µM*	2.5%	-11.8%
